{"source": "paper PMC10108392", "about": "“Rimonabant-Based Compounds Bearing Hydrophobic Amino Acid Derivatives as Cannabinoid Receptor Subtype 1 Ligands” (ACS Medicinal Chemistry Letters, 2023)", "system": "mice", "test": "Formalin test", "type": "in vivo, mouse", "conditions": "100 μg in 20 μL s.c., 15 min before formalin", "method": "testing. […] Then, the compounds were\nCompounds were prepared by freshly diluting\nThen, these solutions were injected for\nThe total time the animal spent licking or biting its paw was calculated.\nThen, paw edema was calculated as formerly\nPaw volume was quantified using a\nData Analysis and Statistics\nStatistically significant differences between\nData were considered statistically\nThe data and statistical analyses respected the recommendations on experimental design and analysis.", "data": [{"smiles": "CNC(=O)[C@@H](NC(=O)c1nn(-c2ccc(Cl)cc2)c(-n2cccc2)c1C)C(C)(C)C", "note": "[Compound 34, RS2691-tLeu-NHCH3]", "values": [{"measurement": "formalin test, early phase (licking activity 0 to 10 min)", "value": "slightly more effective than the pure CB1 agonist WIN55,212-2"}]}]}
